Chains of the proteins cited; added tags and fusions are not shown.
UniProt Q15858, whole entry: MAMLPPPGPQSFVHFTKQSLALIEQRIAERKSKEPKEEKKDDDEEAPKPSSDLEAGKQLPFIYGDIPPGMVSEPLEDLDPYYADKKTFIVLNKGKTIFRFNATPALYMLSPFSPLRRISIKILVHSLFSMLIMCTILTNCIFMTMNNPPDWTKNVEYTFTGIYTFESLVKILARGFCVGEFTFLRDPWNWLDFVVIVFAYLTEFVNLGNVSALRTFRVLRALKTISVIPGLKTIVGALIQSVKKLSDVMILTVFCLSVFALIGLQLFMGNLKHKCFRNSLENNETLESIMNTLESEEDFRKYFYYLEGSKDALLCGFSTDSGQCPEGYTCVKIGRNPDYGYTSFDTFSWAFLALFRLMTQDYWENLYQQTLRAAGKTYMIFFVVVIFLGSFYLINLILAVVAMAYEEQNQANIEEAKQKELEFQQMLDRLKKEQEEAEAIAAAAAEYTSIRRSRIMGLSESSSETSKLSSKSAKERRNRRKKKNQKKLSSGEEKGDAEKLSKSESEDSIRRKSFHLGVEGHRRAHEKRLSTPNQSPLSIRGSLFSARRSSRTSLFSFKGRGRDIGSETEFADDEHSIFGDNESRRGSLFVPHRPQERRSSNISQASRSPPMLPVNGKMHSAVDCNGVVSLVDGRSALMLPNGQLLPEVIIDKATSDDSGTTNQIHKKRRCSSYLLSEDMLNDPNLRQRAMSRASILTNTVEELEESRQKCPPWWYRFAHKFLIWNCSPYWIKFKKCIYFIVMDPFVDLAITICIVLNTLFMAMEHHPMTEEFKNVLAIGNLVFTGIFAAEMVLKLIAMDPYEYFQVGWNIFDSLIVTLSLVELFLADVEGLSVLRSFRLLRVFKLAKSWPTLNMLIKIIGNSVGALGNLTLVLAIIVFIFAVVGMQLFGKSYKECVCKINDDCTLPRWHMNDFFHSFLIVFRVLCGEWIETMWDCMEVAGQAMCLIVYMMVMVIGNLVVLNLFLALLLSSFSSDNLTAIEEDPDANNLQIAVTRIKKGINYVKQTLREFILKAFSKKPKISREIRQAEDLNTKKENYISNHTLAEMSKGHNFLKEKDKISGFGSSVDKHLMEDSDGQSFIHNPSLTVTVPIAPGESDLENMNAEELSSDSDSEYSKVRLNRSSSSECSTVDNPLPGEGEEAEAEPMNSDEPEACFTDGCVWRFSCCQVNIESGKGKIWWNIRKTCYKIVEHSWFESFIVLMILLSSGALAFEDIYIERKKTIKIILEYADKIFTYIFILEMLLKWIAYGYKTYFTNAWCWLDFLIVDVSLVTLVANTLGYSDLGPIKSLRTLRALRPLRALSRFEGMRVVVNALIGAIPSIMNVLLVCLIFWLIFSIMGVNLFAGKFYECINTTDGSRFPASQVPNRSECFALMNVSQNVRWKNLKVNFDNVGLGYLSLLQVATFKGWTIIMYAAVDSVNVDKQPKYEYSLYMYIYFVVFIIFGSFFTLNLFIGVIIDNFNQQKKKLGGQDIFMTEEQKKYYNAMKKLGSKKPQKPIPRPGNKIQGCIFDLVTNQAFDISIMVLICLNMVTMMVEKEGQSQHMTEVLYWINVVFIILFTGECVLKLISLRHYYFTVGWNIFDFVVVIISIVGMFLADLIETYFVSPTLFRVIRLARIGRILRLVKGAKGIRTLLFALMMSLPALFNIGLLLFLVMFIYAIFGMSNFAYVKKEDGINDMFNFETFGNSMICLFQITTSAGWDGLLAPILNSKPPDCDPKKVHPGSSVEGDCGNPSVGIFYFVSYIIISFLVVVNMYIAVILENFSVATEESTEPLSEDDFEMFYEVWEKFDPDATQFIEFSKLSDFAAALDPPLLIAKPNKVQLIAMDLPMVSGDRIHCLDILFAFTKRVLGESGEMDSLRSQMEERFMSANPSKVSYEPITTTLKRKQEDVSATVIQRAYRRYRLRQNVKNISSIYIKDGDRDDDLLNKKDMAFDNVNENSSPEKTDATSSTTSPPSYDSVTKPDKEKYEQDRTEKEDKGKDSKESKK

According to ChEMBL document CHEMBL5725611, “N-substituted benzamides and methods of use thereof” (2018):

Columns and labels:
[1] = molecular target: T1, Sodium channel protein type 9 subunit alpha (Homo sapiens, UniProt Q15858); assay: Electrophysiological Assay (In Vitro Assay): Patch voltage clamp electrophysiology allows for the direct measurement and quantification of block of voltage-gated sodium channels (NaV's), and allows the determination of the time- and voltage-dependence of block which has been interpreted as differential binding to the resting, open, and inactivated states of the sodium channel (Hille, B., Journal of General Physiology (1977), 69: 497-515).The following patch voltage clamp electrophysiology studies were performed on representative compounds of the invention using human embryonic kidney cells (HEK), permanently transfected with an expression vector containing the full-length cDNA coding for the desired human sodium channel α-subunit, grown in culture media containing 10% FBS, 1% PSG, and 0.5 mg/mL G418 at 37° C. with 5% CO2. […] NaV1.7 and NaV1.5 cDNAs (NM_002977 and AC137587; SCN5A, respectively) were stably expressed in HEK-293 cells. The β1 subunit was coexpressed in both the NaV1.7 and NaV1.5 cell lines.Sodium currents were measured using the patch clamp technique in the whole-cell configuration using either a PatchXpress automated voltage clamp or manually using an Axopatch 200B (Axon Instruments) or Model 2400 (A-M systems) amplifier. […]; type: cell-based
[2] = molecular target: T1, Sodium channel protein type 9 subunit alpha; assay: Binding Assay: Preparation of membranes containing recombinantly expressed sodium channels: Frozen recombinant cell pellets were thawed on ice and diluted to 4 times the cell pellet weight with ice cold 50 mM Tris HCl, pH 7.4 buffer. The cell suspensions were homogenized on ice using a motorized glass dounce homogeniser. […] The supernatants were collected and centrifuged at 10000×g at 4° C. for 50 min. The pellets were then re-suspended in 100 mM NaCl, 20 mM Tris HCl, pH 7.4 buffer containing 1% v/v protease inhibitors (Calbiochem) and re-homogenized on ice. The homogenized membranes were then processed through a syringe equipped with a 26 gauge needle. Protein concentrations were determined by Bradford Assay and the membranes were stored at −80° C.Radioligand Binding Studies: Saturation experiments. A representative compound of formula (I) was tritiated. Three tritiums were incorporated in place of methyl hydrogens to generate [3H]compound. Binding of this radioligand was performed in 5 mL borosilicate glass test tubes at room temperature. Binding was initiated by adding membranes to increasing concentrations of [3H]compound in 100 mM NaCl, 20 mM Tris HCl, pH 7.4 buffer containing 0.01% w/v bovine serum albumin (BSA) for 18 h. Non-specific binding was determined in the presence of 1 μM unlabelled compound. […]

COC(=O)C1CCN(S(=O)(=O)NC(=O)c2cc(Cl)c(Oc3cnc(OCC(C)C)c(Cl)c3)cc2F)CC1
IC50 [1]: 218 nM
IC50 [2]: 1590 nM
